Assay results taken from patent publication US8182983B2, “Method for determining immune system affecting compounds” (Canimguide Therapeutics AB, priority 2002, dated 2012).

Test system: normal PBMC
Test: Homogenised tumour tissue and PIF incubated with serum albumin or IgG, IL-6 inducing activity
Type: cell-based, human
Protocol: The pelleted homogenised tumour tissue formed during preparation of PIF (se above) was kept on ice and stored at −70° C. PIF were prepared as described above. In one experiment, the homogenised sections were washed once more to collect a fourth supernatant, used as a control reflecting the IL-6 inducing activity in tumour sections before incubation. The fourth supernatant was divided into two parts, to one of which was added 20 mg/ml of HSA and directly frozen at −70° C. The mixtures of homogenised tumour tissue with 20 mg/ml HSA or with 10 mg/ml pooled human IgG for intravenous injection (IvIg), as well as the mixtures of PIF with 20 mg/ml HSA or with 10 mg/ml IvIg, all in RPMI/PEST, were incubated for 18-21.5 h at 37° C. Parallel incubations of tumour tissue and PIF with no addition of HSA or IvIg, as well as RPMI/PEST with addition of HSA or IvIg, were set up as controls. The mixtures were centrifuged and supernatants collected. The supernatants were buffer exchanged to RPMI as described previously and filtered through a 0.45 μm Millex-HV syringe filter (Millipore, MA, US) and stored at −70° C. until testing for monokine inducing activity in fresh, normal PBMC as described above.

albumin: human serum albumin (HSA, Octapharma)
production of cytokine inducing factors by washed tumour sections/homogenates (added to washed tumour homogenates, 18-22 h at 37° C., determined in PBMC cultures): markedly increased | IL-6 inducing activity of fresh PIF-fractions (albumin added to PIF, 37° C. for 18 h, compared to no addition): lower
